Measured values taken from paper PMC6974733, “Rap1‐mediated nucleosome displacement can regulate gene expression in senescent cells without impacting the pace of senescence”.

Experiments:
[1] = target: GST-SANT (S. cerevisiae) (UniProt P11938); assay: pull-down; Equimolar GST-Rap1 constructs (2 μM) on glutathione resin and H3/H4 (2 μM). 300 mM NaCl (similar interaction strengths from 150 to 750 mM NaCl). Coomassie stain and anti-H3 immunoblot; H3 signal normalised with full-length Rap1 set as 1.0
[2] = target: GST-Rap1^SHY (full-length) (S. cerevisiae) (UniProt P11938); assay: pull-down; Equimolar GST-tagged protein (0.5 μM; GST-SANT and its mutants, or full-length Rap1 and Rap1^SHY) on glutathione beads and H3/H4 (0.5 μM). 400 mM NaCl; anti-H3 immunoblot, wild type set to 1.0

- binding relative to full-length Rap1 (fold of full-length Rap1) [1]: 0.5
- loss of H3/H4 binding signal against full-length wild-type Rap1 [2]: 50%
Substance: histone H3/H4 tetramers (from UniProt P61830 1-136; P02309 1-103) (complex)
